Measured values taken from patent US20240358732A1, “Use of Rutin and Rapamycin in the Preparation of Synergistic Chemotherapy Drugs for Tumor Inhibition” (priority 2023, published 2024).

Tested on: SASP factors
Experiment: qRT-PCR of typical SASP factors in BLEO-induced senescent PSC27 cells
Type: cell-based, human

N[C@@H](Cc1ccc([N+]([O-])(CCCl)CCCl)cc1)C(=O)O
expression of p16^INK4A and p21^CIP1: remain unaffected
expression of typical SASP factors: significantly decrease
